Apparent affinities of Ab-91 variants for a coronavirus HR2 peptide

Source: Engelhart et al. 2022 (doi:10.1038/s41597-022-01779-4), MIT Lincoln Laboratory and A-Alpha Bio; data file from the FLAb repository.

Antigen: PDVDLGDISGINAS, a 14-residue peptide of the SARS-CoV-2 spike HR2 region.

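Library AAYL51 holds single substitutions and randomly drawn double and triple substitutions in the CDRs. The assay is AlphaSeq: two haploid yeast populations carry antibody and antigen on their surface. After mating in shaken culture at 30 °C for 16 h, diploids were selected and their barcode pairs sequenced. The ratio of observed to expected reads was calibrated, replicate by replicate, on BCL2-family standards whose Kd was known from biolayer interferometry. There are three technical replicates.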

Each scFv is VL, a 15-residue (Gly4Ser)3 linker, VH, as in the parent Ab-91, and differs from it in the CDRs of the heavy chain only.
VL: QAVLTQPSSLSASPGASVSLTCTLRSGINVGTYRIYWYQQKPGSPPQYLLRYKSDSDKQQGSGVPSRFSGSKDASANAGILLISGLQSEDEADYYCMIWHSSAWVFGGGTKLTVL
VH: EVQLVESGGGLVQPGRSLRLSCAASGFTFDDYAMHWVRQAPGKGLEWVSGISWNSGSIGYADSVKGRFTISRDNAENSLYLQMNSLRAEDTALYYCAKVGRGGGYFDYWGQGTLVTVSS

Variants are written as CDR1, CDR2 and CDR3 of the heavy chain (limits as in the source). Parent: GFTFDDYAMH, GISWNSGSIGYADSVK, VGRGGGYFDY.
Every variant below is changed at I58 of the VH (sequential numbering).
Affinities are written as log10 Kd with Kd in nM; a lower number is a better binder.
The mean shown is taken over the replicates in which the pair was detected.
Where no diploid with the target was found in that replicate, the entry reads "nd": below detection, most likely a poor binder, though not proof of it.

CDR-H1,CDR-H2,CDR-H3,"replicates, log10 nM",mean log10 Kd (nM)
GFTFDDYAMH,GISWNSGSNGYADSVK,VGRGGGYNDI,nd / 4.44 / 3.54,3.99
GFTFDDYAMH,GISWNSGSRGYADSVH,VGRMGGYFDY,3.82 / 4.37 / nd,4.10
GFTFDDYAMI,GISWNSGSVGYADSVK,VGRGGGYEDY,nd / nd / nd,nd
GFTFDDYAMH,PISWNKGSSGYADSVK,VGRGGGYFDY,nd / nd / nd,nd
GFTFDDYAFH,GISWNSGSLGYADSVK,DGRGGGYFDY,nd / nd / nd,nd
GFTDDDYAML,GISWNSGSLGYADSVK,VGRGGGYFDY,nd / nd / nd,nd
GFTFDDYAMH,GISWNSGSRTYADSVK,VGRGGGYFDF,3.70 / nd / nd,3.70
GFTFDDYAMH,GISWNSMSTGYADSVK,VGRGGGYFDY,1.25 / 1.04 / 0.83,1.04
EFGFDDYAMH,GISWNSGSAGYADSVK,VGRGGGYFDY,nd / nd / nd,nd
GFTFVDYQMH,GISWNSGSRGYADSVK,VGRGGGYFDY,5.34 / nd / nd,5.34
GFTFDDYAMH,GISWNSGSHGYADGVK,VGRGGGYFDY,nd / nd / nd,nd
GFTFDDYAMH,GISWNSGTYGDADSVK,VGRGGGYFDY,nd / nd / nd,nd
GFTFDDYAMH,GISDNSGSYGYADSVK,VGRGGGYFDY,4.44 / 5.13 / 5.65,5.08
GFTFDMYAMH,SISWNSGSSGYADSVK,VGRGGGYFDY,nd / nd / nd,nd
GFTFDDEAMH,GISWNSFSDGYADSVK,VGRGGGYFDY,nd / nd / nd,nd
GFTFDDYAMH,GISWNSWSQGYADSVK,VGRGGGYFDC,1.17 / 1.19 / 1.21,1.19
GFTFDDCAMH,GISWISGSYGYADSVK,VGRGGGYFDY,nd / nd / nd,nd
GFTFHDNAMH,GISWNSGSAGYADSVK,VGRGGGYFDY,1.24 / 1.25 / 0.68,1.06
GFTFDDYAMH,GISWNSASKGYADSVK,VGRGGGYKDY,1.11 / nd / nd,1.11
GFTFDDYAMH,GISWNSGSLGYADSVK,EGRGGGYFDY,4.89 / 5.50 / nd,5.20
GFTFDDYAMH,GISWNLGSAGYADSVK,VGRGGGYFDC,2.73 / 3.13 / 2.87,2.91
GLTFDDYAMH,GISWNSYSHGYADSVK,VGRGGGYFDY,2.42 / 2.69 / 1.62,2.24
GFTFDDYAMH,GISWNSGSLYYADSVK,VVRGGGYFDY,6.60 / nd / nd,6.60
WFTFDDYAMH,GISWNSGSHGWADSVK,VGRGGGYFDY,nd / nd / nd,nd
GFTFKDYAMH,GISPNSGSFGYADSVK,VGRGGGYFDY,1.19 / 1.27 / 0.46,0.97
GFTFDDYDMH,GISWNSCSGGYADSVK,VGRGGGYFDY,nd / nd / nd,nd
GFTFDDYAMH,GIIWNSGDCGYADSVK,VGRGGGYFDY,4.89 / nd / nd,4.89
GFTFDDYAMW,GISWNSGSVGYADHVK,VGRGGGYFDY,4.46 / 4.18 / nd,4.32
GFTFDDYAMH,GISWNSGSFGYADSVK,VGRGGGYFDY,3.80 / nd / nd,3.80
GFTFDDYAMH,GISWNSGSNGYADSVK,CGRGGGYFDY,nd / nd / nd,nd
GFTFDDYAMH,GISWNSGSPGYADSVK,VGRGGGYFDY,4.21 / nd / nd,4.21
EFTFDDYAMH,GISWNSGSCGYADSVK,VGRGGGYFTY,nd / nd / nd,nd
GFTFDDYAMH,TISWNSGSYGYAFSVK,VGRGGGYFDY,nd / nd / nd,nd
GFTFDDYAKH,GISWNSGSCGYADSVK,KGRGGGYFDY,nd / nd / nd,nd
GFTFDDYAMH,GIAWNSGSFGYADSVK,VGRGDGYFDY,5.15 / 6.44 / nd,5.79
GFTFDDYAMH,GISWNSMSEGYADSVK,VGRGGGYFDY,0.76 / 0.71 / 0.03,0.50
GFTFDDYAMH,GISWNSTSQGYAQSVK,VGRGGGYFDY,2.08 / 2.23 / 2.18,2.16
GFTFDDYAMH,GISWNSGSSGYADQVK,VGRGGGYFYY,1.97 / 1.79 / 1.58,1.78
GFTFSDYAMH,GISWNSGSKGYADSVK,VQRGGGYFDY,nd / nd / nd,nd
GFTFDDYAMH,GISWNSGSLGYADSVK,VGRGWGYFDY,1.62 / 1.60 / 1.21,1.48

The first 4 variants above that were never detected:

CDR-H1,CDR-H2,CDR-H3,"replicates, log10 nM",mean log10 Kd (nM)
GFTFDDYAMI,GISWNSGSVGYADSVK,VGRGGGYEDY,nd / nd / nd,nd
GFTFDDYAMH,PISWNKGSSGYADSVK,VGRGGGYFDY,nd / nd / nd,nd
GFTFDDYAFH,GISWNSGSLGYADSVK,DGRGGGYFDY,nd / nd / nd,nd
GFTDDDYAML,GISWNSGSLGYADSVK,VGRGGGYFDY,nd / nd / nd,nd

In this assay the parent's reference entry averaged 1.86; its copy inside this library read 0.88.
As a blank, each scFv also met three strains without target: over library AAYL51, 21% of these pairings were detected, typically at 4.54 and seldom below 3.26.